{"sequences": {"note": "Sequences of proteins named here, by UniProt entry; tags and fusion partners are left off.", "UniProt O75469, whole entry": "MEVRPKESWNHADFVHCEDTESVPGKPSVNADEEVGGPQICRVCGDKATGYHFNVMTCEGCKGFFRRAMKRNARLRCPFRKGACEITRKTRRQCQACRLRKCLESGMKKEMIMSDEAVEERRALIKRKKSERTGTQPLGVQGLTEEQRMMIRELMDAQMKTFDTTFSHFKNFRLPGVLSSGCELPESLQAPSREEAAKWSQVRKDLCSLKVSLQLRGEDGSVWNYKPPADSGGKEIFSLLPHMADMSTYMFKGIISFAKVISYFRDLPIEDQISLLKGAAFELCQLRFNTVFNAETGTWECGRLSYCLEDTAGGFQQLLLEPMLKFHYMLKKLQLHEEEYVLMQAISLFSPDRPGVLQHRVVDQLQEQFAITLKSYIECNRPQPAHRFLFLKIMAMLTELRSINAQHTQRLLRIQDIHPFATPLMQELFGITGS"}, "source": "PubChem BioAssay (Tox21)", "note": "Values joined by “and” are separate entries in the source; they are usually repeats but may differ in a detail not shown here. Equal entries are not always repeated. This is a selection; strong and weak results do not stand in their true shares. Inconclusive results are not listed. A structure can be active in one record and inactive in another. A call without a number means that no potency is given here. Active and inactive are the calls of the source. Calls follow the shape of the dose curve; as a rule, active = well fitted curve in the direction sought with a large enough effect in the repeat runs; inconclusive = weak or mixed curves; inactive = no such curve, though single readings can be large; an effect the other way counts as inactive or inconclusive."}
{"test_system": "not listed separately", "test": "Caspase-3/7 induction in CHO-K1 cells by small molecules, qHTS cell viability counter screen (AID 1346979); also: nearly all actives have a fitted effect of over 35% in size; also: potency is read from the fitted curve at half-maximal effect", "settings": "CellTiter-Fluor fluorescence, 17 h; series mostly up to 92.4 µM", "procedure,_shortened": "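Cells (CHO-K1, wild type) are plated at 1,500 per well and incubated 5hr. Test compounds in DMSO are then pinned in, followed by 16hr at 37C and 5% CO2. Viability is read by CellTiter-Fluor fluorescence after 1hr.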"}
{"smiles": "CC(C)N(CCO)C(C)C", "Potency": "inactive"}
{"smiles": "CCN(CC)CCCl", "Potency": "inactive"}
{"smiles": "O=[N+]([O-])c1cccc([N+](=O)[O-])c1", "Potency": "inactive"}
{"smiles": "OCCSCCO", "Potency": "inactive"}
{"smiles": "O=[N+]([O-])OCC(CO[N+](=O)[O-])(CO[N+](=O)[O-])CO[N+](=O)[O-]", "Potency": "inactive"}
{"smiles": "N=C(N)N[N+](=O)[O-]", "Potency": "inactive"}
{"smiles": "C/C1=C2N=C(/C=C3N=C(/C(C)=C4\\[N-][C@@](C)([C@@H]5N=C1[C@](C)(CCC(=O)NC[C@@H](C)OP(=O)([O-])O[C@H]1[C@@H](O)[C@@H](n6cnc7cc(C)c(C)cc76)O[C@@H]1CO)[C@H]5CC(N)=O)[C@@](C)(CC(N)=O)[C@@H]4CCC(N)=O)[C@@](C)(CC(N)=O)[C@@H]\\3CCC(N)=O)C(C)(C)[C@@H]/2CCC(N)=O.[C-]#N.[Co+3]", "Potency": "inactive"}
{"smiles": "O=[N+]([O-])[O-].[NH4+]", "Potency": "inactive"}
{"smiles": "COc1ccc([N+](=O)[O-])cc1[N+](=O)[O-]", "Potency": "inactive"}
{"smiles": "Nc1cc([N+](=O)[O-])cc([N+](=O)[O-])c1O", "Potency": "active: 24.9 µM"}
{"smiles": "COP(C)(=O)OC", "Potency": "inactive"}
{"smiles": "Cc1c([N+](=O)[O-])cccc1[N+](=O)[O-]", "Potency": "inactive"}
{"smiles": "[NH4+].[O-][Cl+3]([O-])([O-])[O-]", "Potency": "inactive"}
{"smiles": "N#CBr", "Potency": "inactive"}
{"smiles": "CCOP(=O)(CC)OCC", "Potency": "inactive"}
{"smiles": "CN(C)CCCl", "Potency": "inactive"}
{"smiles": "CP(=O)(O)OCCC[Si](O)(O)O", "Potency": "inactive"}
{"test_system": "not listed separately", "test": "Caspase-3/7 induction in CHO-K1 cells by small molecules, qHTS assay (AID 1346980); also: nearly all actives have a fitted effect of over 15% in size; also: potency is read from the fitted curve at half-maximal effect", "settings": "CHO-K1 caspase-3/7 induction, Caspase-Glo luminescence, 17 h; series mostly up to 92.4 µM", "procedure,_shortened": "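Luminescent Caspase-Glo 3/7 read (30min, room temperature) quantified apoptosis induction. Cells were wild-type CHO-K1, treated with compound for 17hr at 37 C and 5% CO2.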"}
{"smiles": "Cc1cccc([N+](=O)[O-])c1[N+](=O)[O-]", "Potency": "inactive"}
{"smiles": "CC(C)N(CCO)C(C)C", "Potency": "inactive"}
{"smiles": "CCN(CC)CCCl", "Potency": "inactive"}
{"smiles": "O=[N+]([O-])c1cccc([N+](=O)[O-])c1", "Potency": "inactive"}
{"smiles": "OCCSCCO", "Potency": "inactive"}
{"smiles": "CC(C)OP(C)(=O)OC(C)C", "Potency": "inactive"}
{"smiles": "Cc1ccc([N+](=O)[O-])cc1[N+](=O)[O-]", "Potency": "active: 53.7 µM and inactive"}
{"smiles": "O=[N+]([O-])OCC(CO[N+](=O)[O-])(CO[N+](=O)[O-])CO[N+](=O)[O-]", "Potency": "inactive"}
{"smiles": "N=C(N)N[N+](=O)[O-]", "Potency": "inactive"}
{"smiles": "C/C1=C2N=C(/C=C3N=C(/C(C)=C4\\[N-][C@@](C)([C@@H]5N=C1[C@](C)(CCC(=O)NC[C@@H](C)OP(=O)([O-])O[C@H]1[C@@H](O)[C@@H](n6cnc7cc(C)c(C)cc76)O[C@@H]1CO)[C@H]5CC(N)=O)[C@@](C)(CC(N)=O)[C@@H]4CCC(N)=O)[C@@](C)(CC(N)=O)[C@@H]\\3CCC(N)=O)C(C)(C)[C@@H]/2CCC(N)=O.[C-]#N.[Co+3]", "Potency": "inactive"}
{"smiles": "O=[N+]([O-])[O-].[NH4+]", "Potency": "inactive"}
{"smiles": "COc1ccc([N+](=O)[O-])cc1[N+](=O)[O-]", "Potency": "inactive"}
{"smiles": "CCOP(=O)(CC)Oc1ccc([N+](=O)[O-])cc1", "note": "(stereo not drawn)", "Potency": "inactive"}
{"smiles": "Nc1cc([N+](=O)[O-])cc([N+](=O)[O-])c1O", "Potency": "inactive"}
{"smiles": "COP(C)(=O)OC", "Potency": "inactive"}
{"smiles": "Cc1c([N+](=O)[O-])cccc1[N+](=O)[O-]", "Potency": "inactive"}
{"smiles": "Cc1ccc([N+](=O)[O-])c([N+](=O)[O-])c1", "Potency": "inactive"}
{"smiles": "[NH4+].[O-][Cl+3]([O-])([O-])[O-]", "Potency": "inactive"}
{"smiles": "N#CBr", "Potency": "inactive"}
{"smiles": "CCOP(=O)(CC)OCC", "Potency": "inactive"}
{"smiles": "CN(C)CCCl", "Potency": "inactive"}
{"smiles": "CP(=O)(O)OCCC[Si](O)(O)O", "Potency": "inactive"}
{"test_system": "not listed separately", "test": "Caspase-3/7 induction in HepG2 cells by small molecules, qHTS cell viability counter screen (AID 1346981); also: nearly all actives have a fitted effect of over 30% in size", "settings": "CellTiter-Fluor fluorescence, 17 h, at 92.4 µM (top of the series)", "procedure,_shortened": "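After a 5-hr attachment period at 37 C and 5% CO2, wild-type HepG2 cells received compounds in DMSO. Sixteen hours later CellTiter-Fluor was dispensed and the fluorescent signal quantified after a further hour.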"}
{"smiles": "CC(C)N(CCO)C(C)C", "activity change, negative = cytotoxicity": "inactive: 0.689%"}
{"smiles": "CCN(CC)CCCl", "activity change, negative = cytotoxicity": "inactive: -1.23%"}
{"smiles": "O=[N+]([O-])c1cccc([N+](=O)[O-])c1", "activity change, negative = cytotoxicity": "inactive: 1.98%"}
{"smiles": "OCCSCCO", "activity change, negative = cytotoxicity": "inactive: -0.166%"}
{"smiles": "CC(C)OP(C)(=O)OC(C)C", "activity change, negative = cytotoxicity": "inactive: 1.73% and inactive: 1.45%"}
{"smiles": "O=[N+]([O-])OCC(CO[N+](=O)[O-])(CO[N+](=O)[O-])CO[N+](=O)[O-]", "activity change, negative = cytotoxicity": "inactive: -1.43%"}
{"smiles": "N=C(N)N[N+](=O)[O-]", "activity change, negative = cytotoxicity": "inactive: -0.0314%"}
{"smiles": "O=[N+]([O-])[O-].[NH4+]", "activity change, negative = cytotoxicity": "inactive: 4.01% and inactive: 4.31%"}
{"smiles": "COc1ccc([N+](=O)[O-])cc1[N+](=O)[O-]", "activity change, negative = cytotoxicity": "inactive: -0.0118%"}
{"smiles": "COP(C)(=O)OC", "activity change, negative = cytotoxicity": "inactive: 2.39% and inactive: 3.04%"}
{"smiles": "Cc1c([N+](=O)[O-])cccc1[N+](=O)[O-]", "activity change, negative = cytotoxicity": "inactive: 0.285% and inactive: 6.81%"}
{"smiles": "Cc1ccc([N+](=O)[O-])c([N+](=O)[O-])c1", "activity change, negative = cytotoxicity": "inactive: -4.49%"}
{"smiles": "[NH4+].[O-][Cl+3]([O-])([O-])[O-]", "activity change, negative = cytotoxicity": "inactive: 6.98%"}
{"smiles": "N#CBr", "activity change, negative = cytotoxicity": "inactive: -2.44%"}
{"smiles": "CCOP(=O)(CC)OCC", "activity change, negative = cytotoxicity": "inactive: -2.63%"}
{"smiles": "CN(C)CCCl", "activity change, negative = cytotoxicity": "inactive: -7.89%"}
{"smiles": "CP(=O)(O)OCCC[Si](O)(O)O", "activity change, negative = cytotoxicity": "inactive: -1.29%"}
{"biological_target": "Nuclear receptor subfamily 1 group I member 2 (Homo sapiens) (UniProt O75469)", "test": "Human pregnane X receptor (PXR) small molecule agonists, qHTS assay (AID 1346982); also: nearly all actives have a fitted effect of over 35% in size; also: potency is read from the fitted curve at half-maximal effect", "settings": "PXR-Luc HepG2, CYP3A4 luciferase reporter, 24 h; series mostly up to 92.4 µM", "procedure,_shortened": "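Tox21 qHTS; PXR-Luc HepG2; compounds pinned from DMSO; 24 hr, 37 C; ONE-Glo luciferase detection, 30 min room temperature.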"}
{"smiles": "Cc1cccc([N+](=O)[O-])c1[N+](=O)[O-]", "Potency": "active: 45.8 µM"}
{"smiles": "CC(C)N(CCO)C(C)C", "Potency": "inactive"}
{"smiles": "OCCSCCO", "Potency": "inactive"}
{"smiles": "CC(C)OP(C)(=O)OC(C)C", "Potency": "inactive"}
{"smiles": "N=C(N)N[N+](=O)[O-]", "Potency": "inactive"}
{"smiles": "C/C1=C2N=C(/C=C3N=C(/C(C)=C4\\[N-][C@@](C)([C@@H]5N=C1[C@](C)(CCC(=O)NC[C@@H](C)OP(=O)([O-])O[C@H]1[C@@H](O)[C@@H](n6cnc7cc(C)c(C)cc76)O[C@@H]1CO)[C@H]5CC(N)=O)[C@@](C)(CC(N)=O)[C@@H]4CCC(N)=O)[C@@](C)(CC(N)=O)[C@@H]\\3CCC(N)=O)C(C)(C)[C@@H]/2CCC(N)=O.[C-]#N.[Co+3]", "Potency": "inactive"}
{"smiles": "O=[N+]([O-])[O-].[NH4+]", "Potency": "inactive"}
{"smiles": "CCOP(=O)(CC)Oc1ccc([N+](=O)[O-])cc1", "note": "(stereo not drawn)", "Potency": "inactive"}
{"smiles": "Nc1cc([N+](=O)[O-])cc([N+](=O)[O-])c1O", "Potency": "inactive"}
{"smiles": "COP(C)(=O)OC", "Potency": "inactive"}
{"smiles": "Cc1c([N+](=O)[O-])cccc1[N+](=O)[O-]", "Potency": "inactive"}
{"smiles": "Cc1ccc([N+](=O)[O-])c([N+](=O)[O-])c1", "Potency": "inactive"}
{"smiles": "[NH4+].[O-][Cl+3]([O-])([O-])[O-]", "Potency": "inactive"}
{"smiles": "N#CBr", "Potency": "inactive"}
{"smiles": "CCOP(=O)(CC)OCC", "Potency": "inactive"}
{"smiles": "CN(C)CCCl", "Potency": "inactive"}
{"smiles": "CP(=O)(O)OCCC[Si](O)(O)O", "Potency": "inactive"}
